From patent US11524940B1, “Inhibitors of cysteine proteases and methods of use thereof” (priority 2020, dated 2022)

By UniProt entry, the sequences of proteins in these tests, tags left out. Residues count along the entry.
UniProt P0C6X1, 2966-3267 limits assumed: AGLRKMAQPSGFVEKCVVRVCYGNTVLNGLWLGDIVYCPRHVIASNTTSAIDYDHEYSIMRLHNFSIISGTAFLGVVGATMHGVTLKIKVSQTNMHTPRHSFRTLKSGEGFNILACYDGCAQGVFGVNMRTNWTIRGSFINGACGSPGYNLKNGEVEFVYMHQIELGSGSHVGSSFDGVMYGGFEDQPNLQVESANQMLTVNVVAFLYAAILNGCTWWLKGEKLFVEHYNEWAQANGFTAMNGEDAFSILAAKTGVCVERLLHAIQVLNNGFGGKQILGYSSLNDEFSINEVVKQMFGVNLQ

Legend:
229E Mpro = 229E Mpro (Human coronavirus 229E (HCoV-229E), UniProt P0C6X1); test: 229E Mpro activity; type: biochemical
SARS-CoV2 Mpro = SARS-CoV2 Mpro (Severe acute respiratory syndrome coronavirus 2 (2019-nCoV) (SARS-CoV-2), UniProt P0DTD1); test: COVID-19 (SARS-CoV2) Mpro enzymatic assay; type: biochemical

SMILES | EC50 (229E Mpro) | IC50 (SARS-CoV2 Mpro)
N#C[C@H](C[C@@H]1CCNC1=O)NC(=O)[C@H](CC1CC1)NC(=O)c1nc2ccncc2[nH]1 [Compound 129, N-[(1S)-2-[[(1S)-1-cyano-2-[(3S)-2-oxopyrrolidin-3-yl]ethyl]amino]-1-(cyclopropylmethyl)-2-oxo-ethyl]-3H-imidazo[4,5-c]pyridine-2-carboxamide] | 2 to 10 µM | 
COc1cccc2nc(C(=O)N[C@@H](CC3CC3)C(=O)N[C@H](C#N)C[C@@H]3CCNC3=O)[nH]c12 [Compound 145, N-[(1S)-2-[[(1S)-1-cyano-2-[(3S)-2-oxopyrrolidin-3-yl]ethyl]amino]-1-(cyclopropylmethyl)-2-oxo-ethyl]-7-methoxy-1H-benzimidazole-2-carboxamide] |  | < 2000 nM
